# Laboratory results published in patent US20240174727A1, “LONG-ACTING NATRIURETIC PEPTIDES AND USES THEREOF” (Eli Lilly and Company, priority 2022, published 2024).
# Target: T1, rat NPRA (Rattus norvegicus, UniProt P18910)
# T1 construct: Full-Length cDNA Cloning and Generation of Cell Lines Overexpressing Natriuretic Peptide Receptors (NPRs); expressed in transfected cells; host or cells: Jump-in T-Rex HEK293 cells, pJTI R4 CMV-TO MCS pA vector, tetracycline induction
# T1 sequence (P18910 29-1057): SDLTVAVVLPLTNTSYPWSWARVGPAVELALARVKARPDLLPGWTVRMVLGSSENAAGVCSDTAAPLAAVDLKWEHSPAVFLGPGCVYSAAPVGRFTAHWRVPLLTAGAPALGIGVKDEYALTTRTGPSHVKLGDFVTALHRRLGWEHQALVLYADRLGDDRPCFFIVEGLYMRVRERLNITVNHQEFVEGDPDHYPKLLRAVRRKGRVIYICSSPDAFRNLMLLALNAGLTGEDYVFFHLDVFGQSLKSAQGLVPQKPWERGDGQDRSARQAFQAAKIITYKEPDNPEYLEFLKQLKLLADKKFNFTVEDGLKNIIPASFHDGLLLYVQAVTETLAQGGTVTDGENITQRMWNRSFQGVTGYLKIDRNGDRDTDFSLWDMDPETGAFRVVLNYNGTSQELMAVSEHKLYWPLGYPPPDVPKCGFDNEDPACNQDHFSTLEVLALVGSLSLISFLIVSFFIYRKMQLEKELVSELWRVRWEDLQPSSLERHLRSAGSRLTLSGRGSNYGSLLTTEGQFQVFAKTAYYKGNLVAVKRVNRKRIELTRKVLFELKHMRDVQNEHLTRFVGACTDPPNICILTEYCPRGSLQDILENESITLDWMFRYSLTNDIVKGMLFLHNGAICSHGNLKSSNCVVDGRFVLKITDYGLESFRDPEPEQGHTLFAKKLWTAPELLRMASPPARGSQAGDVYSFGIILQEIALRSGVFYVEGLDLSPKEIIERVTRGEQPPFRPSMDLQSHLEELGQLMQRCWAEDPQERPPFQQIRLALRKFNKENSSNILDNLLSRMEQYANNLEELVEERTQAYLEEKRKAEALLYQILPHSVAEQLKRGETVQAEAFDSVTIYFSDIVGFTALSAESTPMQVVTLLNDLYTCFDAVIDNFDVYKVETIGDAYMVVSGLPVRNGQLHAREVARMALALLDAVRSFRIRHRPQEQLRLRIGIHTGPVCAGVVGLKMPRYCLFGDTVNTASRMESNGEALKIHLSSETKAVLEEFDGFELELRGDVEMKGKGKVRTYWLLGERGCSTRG
# Assay: Rat NPRA cGMP activity assay (HTRF) in HEK293 cells overexpressing NPRA
# Type: cell-based
# Protocol: All sequences were verified by full-length sequencing performed by ACGT DNA Sequencing Services (Wheeling, IL). The target cDNA was cloned into pJTI R4 CMV-TO MCS pA vector and then co-transfected with pJT1R4 Int vector into Jump-in™ T-Rex™ HEK293 cells for mammalian inducible expression using Jump-in™ T-Rex™ HEK293 kit and Lipofectamine LTX and Plus Reagent following manufacturer's protocols, as briefly described below.
# Jump-in™ T-Rex™ HEK293 cells were plated in a BioCOAT® poly-D-lysine coated 6-well plate (Becton Dickinson, cat no. 354413) at 1 million cells/well in 2 mL culture medium and incubated for 18 h at 37° C. and 5% CO2 to 50-70% confluence. A cDNA mix was made in a 50 mL tube by adding 1.5 μg target cDNA, 1.5 μg pJT1R4 Int vector, 3 μL Plus Reagent, and 300 μL Opti-MEM I sequentially into the tube. A reagent mix was made in a separate 50 mL tube by adding 7.5 μL Lipofectamine LTX into 300 μL Opti-MEM I. The mixtures were incubated for 5 min at room temperature. The cDNA mix was then transferred into the reagent mix, mixed well, and incubated for additional 30 min at room temperature. A 500 μL of cDNA/Lipofectamine complex was then transferred to the wells of the cell plate in which the culture medium was changed to 2 mL of transfection medium containing DMEM with 4.5 g/L D-glucose supplemented with 10% FBS-HI and 20 mM HEPES. Transfected cells were cultured for 48 h in an incubator at 37° C. and 5% CO2. A subclone or pool from each overexpressing cell line was maintained in culture medium with the addition of 2 mg/mL G418 sulfate for the clone selection based on its built-in resistance to G418 sulfate for at least 3 weeks with medium changed every 2-3 days.
# NPRs were overexpressed in T-Rex™ HEK293 cells following the induction with 300 ng/mL tetracycline in culture medium for 48 h. Induced cell lines in an exponential growth phase were treated with 0.05% trypsin-EDTA for a few seconds at room temperature, harvested in cell medium containing FBS to neutralize the trypsin, counted, and cryopreserved at the density of 2 million cells/mL in cell preservation solution containing FBS-HI with 5% DMSO. Cryopreserved cells were stored at −80° C. for a few days prior to transferring to a liquid nitrogen tank. Induced cell lines were then used for suspension assays to measure the activity of polypeptides to stimulate cGMP production in cGMP assays or for the preparation of cell membranes to measure the binding activity of polypeptides in competitive radioligand binding assays, as described below.
# Test polypeptides were added starting at 10 μM concentration and at 10-fold decreasing concentrations to obtain 8-point concentration-response curves (i.e., 10 μM to 1 pM). The quantity of cGMP generated was detected using HTRF® technology and normalized to maximum amount produced by 100 nM amidated rat ANP and the minimum amount produced by assay buffer. Detailed steps are outlined below.
# Stock solutions of test polypeptides (2 mM) dissolved in DMSO were first diluted 100-fold in assay buffer containing HBSS with Ca^2+ and Mg^2+, 5 mM HEPES, 0.5 mM IBMX, and 0.1% BSA or 0.1% casein (pH 7.4). The polypeptides were further serially diluted in 1:10 dilution steps in assay buffer containing 0.1% BSA or 0.1% casein to generate 8-point 2× working stock solutions ranging from 20 μM to […].
# A 10 μL cell suspension containing 4000 cells was plated in Costar® half-area white opaque 96-well plates (Corning, cat no. 3693). Then 10 μL of assay buffer (basal activity), 200 nM of amidated rat ANP (maximum activity) or 2× working stock solutions of test polypeptides were transferred into the plate. Final concentration of DMSO in each well was 0.5%. The plate was shaken for 15 sec and then incubated for 40 min at room temperature.
# The cGMP generated was measured using cGMP kit following the manufacturer's directions, as described below.
# [1] = cGMP Assay (EC50, pM) w/BSA rNPRA, assay buffer with 0.1% BSA
# [2] = cGMP Assay (EC50, pM) w/Casein rNPRA, assay buffer with 0.1% casein
Compound,EC50 [1] [pM],EC50 [2] [pM]
CC[C@H](C)[C@@H]1NC(=O)[C@H](CCCNC(=N)N)NC(=O)[C@H](CC(=O)O)NC(=O)[C@H]([C@@H](C)CC)NC(=O)[C@H](CCCNC(=N)N)NC(=O)[C@H](CCCCN)NC(=O)CNC(=O)[C@H](Cc2ccccc2)NC(=O)[C@@H](NC(=O)[C@H](CO)NC(=O)[C@H](CO)NC(=O)[C@H](CCCNC(=N)N)NC(=O)[C@@H]2CCCN2C(=O)[C@H](CCCCN)NC(=O)[C@H](CCC(=O)O)NC(=O)CNC(=O)[C@H](CCCCN)NC(=O)[C@H](CCC(=O)O)NC(=O)[C@H](CCCCN)NC(=O)[C@H](CCC(=O)O)NC(=O)[C@H](CCCCN)NC(=O)[C@H](CCC(=O)O)NC(=O)CC[C@H](NC(=O)CCCCCCCCCCCCCCCCCCC(=O)O)C(=O)O)CSCSC[C@@H](C(=O)N2CCC[C@H]2C(=O)N[C@@H](CO)C(=O)N[C@@H](Cc2ccccc2)C(=O)N[C@@H](CCCNC(=N)N)C(=O)N[C@@H](Cc2c[nH]cn2)C(=O)NCC(=O)N[C@@H](CO)C(=O)N2CCC[C@H]2C(=O)N[C@@H](CO)C(=O)N[C@@H](CO)C(=O)NCC(=O)N[C@@H](C)C(=O)N2CCC[C@H]2C(=O)N2CCC[C@H]2C(=O)N2CCC[C@H]2C(=O)N[C@@H](CO)C(N)=O)NC(=O)CNC(=O)[C@H](CC(C)C)NC(=O)CNC(=O)[C@H](CO)NC(=O)[C@H](Cc2ccc(O)cc2)NC(=O)[C@H](Cc2c[nH]cn2)NC(=O)CNC1=O [Example 5],276000,1130
CC[C@H](C)[C@@H]1NC(=O)[C@H](CCCNC(=N)N)NC(=O)[C@H](CC(=O)O)NC(=O)[C@H]([C@@H](C)CC)NC(=O)[C@H](CCCCN)NC(=O)CNC(=O)CNC(=O)[C@H](Cc2ccccc2)NC(=O)[C@@H](NC(=O)[C@H](CO)NC(=O)[C@H](CO)NC(=O)[C@H](CCCNC(=N)N)NC(=O)[C@H](CCCCN)NC(=O)[C@H](Cc2ccncc2)NC(=O)[C@H](CO)NC(=O)CNC(=O)[C@H](CCCCN)NC(=O)[C@H](CCC(=O)O)NC(=O)[C@H](CCCCN)NC(=O)[C@H](CCC(=O)O)NC(=O)[C@H](CCCCN)NC(=O)[C@H](CCC(=O)O)NC(=O)CC[C@H](NC(=O)CCCCCCCCCCCCCCCCCCC(=O)O)C(=O)O)CSSC[C@@H](C(=O)N2CCC[C@H]2C(=O)N[C@@H](CO)C(=O)N[C@@H](Cc2ccccc2)C(=O)N[C@@H](CCCNC(=N)N)C(=O)N[C@@H](Cc2c[nH]cn2)C(=O)NCC(=O)NCC(=O)N2CCC[C@H]2C(=O)N[C@@H](CO)C(=O)N[C@@H](CO)C(=O)NCC(=O)N[C@@H](C)C(=O)N2CCC[C@H]2C(=O)N2CCC[C@H]2C(=O)N2CCC[C@H]2C(=O)N[C@@H](CO)C(N)=O)NC(=O)CNC(=O)[C@H](CC(C)C)NC(=O)CNC(=O)[C@H](CO)NC(=O)[C@H](CCC(N)=O)NC(=O)[C@H](CN)NC(=O)CNC1=O [Example 31],–,12200
CC[C@H](C)[C@@H]1NC(=O)[C@H](CCCNC(=N)N)NC(=O)[C@H](CC(=O)O)NC(=O)[C@H]([C@@H](C)CC)NC(=O)[C@H](CCCNC(=N)N)NC(=O)CNC(=O)CNC(=O)[C@H](Cc2ccccc2)NC(=O)[C@@H](NC(=O)[C@H](CO)NC(=O)[C@H](CO)NC(=O)[C@H](CCCNC(=N)N)NC(=O)[C@H](CCCNC(=N)N)NC(=O)[C@H](Cc2ccncc2)NC(=O)[C@H](CO)NC(=O)CNC(=O)[C@H](CCCCN)NC(=O)[C@H](CCC(=O)O)NC(=O)[C@H](CCCCN)NC(=O)[C@H](CCC(=O)O)NC(=O)[C@H](CCCCN)NC(=O)[C@H](CCC(=O)O)NC(=O)CC[C@H](NC(=O)CCCCCCCCCCCCCCCCCCC(=O)O)C(=O)O)CSSC[C@@H](C(=O)N2CCC[C@H]2C(=O)N[C@@H](CO)C(=O)N[C@@H](Cc2ccccc2)C(=O)N[C@@H](CCCNC(=N)N)C(=O)N[C@@H](Cc2c[nH]cn2)C(=O)NCC(=O)N2CCC[C@H]2C(=O)N[C@@H](CO)C(=O)N[C@@H](CO)C(=O)NCC(=O)N[C@@H](C)C(=O)N2CCC[C@H]2C(=O)N2CCC[C@H]2C(=O)N2CCC[C@H]2C(=O)N[C@@H](CO)C(N)=O)NC(=O)CNC(=O)[C@H](CC(C)C)NC(=O)CNC(=O)[C@H](CO)NC(=O)[C@H](CCC(N)=O)NC(=O)[C@H](Cc2c[nH]cn2)NC(=O)CNC1=O [Example 37],84600,–
CC[C@H](C)[C@@H]1NC(=O)[C@H](CCCNC(=N)N)NC(=O)[C@H](CC(=O)O)NC(=O)[C@H]([C@@H](C)CC)NC(=O)[C@H](CCCNC(=N)N)NC(=O)CNC(=O)CNC(=O)[C@H](Cc2ccccc2)NC(=O)[C@@H](NC(=O)[C@H](CO)NC(=O)[C@H](CO)NC(=O)[C@H](CCCNC(=N)N)NC(=O)[C@H](CCCNC(=N)N)NC(=O)[C@H](Cc2ccncc2)NC(=O)[C@H](CO)NC(=O)CNC(=O)[C@H](CCCCN)NC(=O)[C@H](CCC(=O)O)NC(=O)[C@H](CCCCN)NC(=O)[C@H](CCC(=O)O)NC(=O)[C@H](CCCCN)NC(=O)[C@H](CCC(=O)O)NC(=O)CC[C@H](NC(=O)CCCCCCCCCCCCCCCCCCC(=O)O)C(=O)O)CSSC[C@@H](C(=O)N2CCC[C@H]2C(=O)N[C@@H](CO)C(=O)N[C@@H](Cc2ccccc2)C(=O)N[C@@H](CCCNC(=N)N)C(=O)N[C@@H](Cc2c[nH]cn2)C(=O)NCC(=O)NCC(=O)N2CCC[C@H]2C(=O)N[C@@H](CO)C(=O)N[C@@H](CO)C(=O)NCC(=O)N[C@@H](C)C(=O)N2CCC[C@H]2C(=O)N2CCC[C@H]2C(=O)N2CCC[C@H]2C(=O)N[C@@H](CO)C(N)=O)NC(=O)CNC(=O)[C@H](CC(C)C)NC(=O)CNC(=O)[C@H](CO)NC(=O)[C@H](Cc2ccc(O)cc2)NC(=O)[C@H](Cc2c[nH]cn2)NC(=O)CNC1=O [Example 38],40500,–
